System: human monocytes / K562
Assay: Human monocyte cytotoxicity assay (MCF assay), 111In-Ox labeled K562 targets
Format: cell-based
Protocol: FIG. 1. Hybrid cells were adjusted to 1×10^6 /ml and stimulated with 8 ug/ml PHA(+). […] to control (-) cultures, and both supernatants harvested by centrifugation. Monocyte cytotoxicity was measured as described herein with the exception that the monocyte monolayer was incubated overnight to allow for decay of NK cell activity. The monolayer was incubated for a second 24 hr period with dilutions of MCF containing supernatants. Dilutions represented are 1/4 in a total test volume of 0.2 ml. […] Microtiter plates were centrifuged 16 hrs later, and supernatants collected and counted. % specific release was calculated as described herein.
Only healthy volunteer donors were used. All volunteer donors signed an informed consent, and the protocol was approved by the Committee for the Protection of Human Subjects, University of Texas Health Science Center. Mononuclear cells were prepared by centrifugation over Ficoll/Hypaque. […] The monolayer was incubated overnight to allow for decay of residual natural killer activity before addition of lymphokine preparations on day 2.
The effector to target ratio was 30:1. […] After 18 hrs incubation of monocyte monolayer with target, the plates were centrifuged and supernatant was removed and cpms were counted in a Beckman Biogamma 2000. Specific release was calculated as described by Wiltrout, supra. […] Other tumor targets used were HL-60, L5178Y and TU5 (Table V).

In the case of rIL2: rIL 2 (Genzyme Corp.), the “monocyte cytotoxicity inducing activity (in words)” value (K562 target) is reported as “Neither IL 1 or IL 2 had any activity”, the “% specific lysis” value (cytokine added at 1 U/ml) is reported as -10.2 ± 17.7% and the “% specific lysis” value (cytokine added at 10 U/ml) is reported as -4.6 ± 4.3%. The “% specific lysis” value (cytokine added at 100 U/ml) was -3.2 ± 3.5% and the “% specific lysis” value (cytokine added at 1000 U/ml) was 2.7 ± 6.2%.

Source: patent publication US5434247A, “Peptides for inducing monocyte cytotoxicity in diagnostics” (Board of Regents, The University of Texas System, priority 1992, dated 1995)
